Experimental data as given in publication PMC4628094, “In Vitro Assessment of Uptake and Lysosomal Sequestration of Respiratory Drugs in Alveolar Macrophage Cell Line NR8383” (Pharmaceutical Research, 2015).

Assays:
[1] = test system: NR8383 cells; details: rat, 10 min, 5 μM
[2] = Accumulation (Kp) in NR8383 over a concentration range, two-site binding model; details: rat, NR8383 cells
[3] = test system: NR8383 cells; assay: as above; details: NR8383, 37°C, concentration range, two-site binding model, control
[4] = Drug uptake in NR8383 at 37 and 4°C (CLuptake, CLdiff, Kp); details: rat, NR8383 cells, Kp (cell-to-medium concentration ratio), NR8383, 5 μM, 37°C, 10 min
[5] = test system: NR8383 cells; assay: as above
[6] = in vitro; details: rat
[7] = test system: Liver tissue slices from male Wistar rats; set-up: method as in ref (5) (a number printed in a supplementary file, which may have a reference list of its own: not looked up in the article's list); details: NH4Cl 20 mM, drug 5 µM, 60 min, ref (5); cited from earlier work

fold decrease in Kp in the presence of NH4Cl relative to control [1] [fold]	Kp at 10 min ([2]; Kp,max, sum of Kp,U1,max and Kp,min, control)	Kp at 10 min ([2]; Kp,min, NR8383, 37°C, concentration range, two-site binding model, control)	Kp at 10 min ([2]; with NH4Cl 20 mM, Kp,min, in the presence of NH4Cl (20 mM), 1–100 μM)	Kp at 10 min ([2]; with NH4Cl 20 mM, mean maximum fitted Kp, in the presence of NH4Cl (20 mM))	Kp,min [3]	Kp at 10 min, 5 μM [4]	CLdiff (passive diffusion clearance) ([5]; NR8383, 5 μM substrate, 4°C)	Kp (cell-to-medium concentration ratio) ([5]; NR8383, 5 μM, 37°C, 10 min)	Kp at 10 min, 20 µM ([6]; Kp + NH4Cl)	Kp at 10 min, 5 μM ([6]; Kp Control)	Kp at 10 min, 20 µM ([6]; Kp Control)	Compound	Reduction in total uptake (%) [7] [%]
6	69	24	4.7	14.4	24.2 ± 2.06	82	Negligible	81.6 ± 22.8	14.2 ± 4.44	82.7 ± 27.3	58.2 ± 11.6	CC[C@H]1OC(=O)[C@H](C)[C@@H](O[C@H]2C[C@@](C)(OC)[C@@H](O)[C@H](C)O2)[C@H](C)[C@@H](O[C@@H]2O[C@H](C)C[C@H](N(C)C)[C@H]2O)[C@](C)(OC)C[C@@H](C)C(=O)[C@H](C)[C@@H](O)[C@]1(C)O [Clarithromycin]	–
–	–	–	–	–	–	–	–	–	–	–	–	CN[C@H]1CC[C@@H](c2ccc(Cl)c(Cl)c2)c2ccccc21 [Sertraline]	20
